We go through two substances from patent US20100234592A1, “Corrosion Inhibitors Having Increased Biodegradability and Reduced Toxicity” (priority 2006, published 2010).

One data set in a line: Shaking foam test. It counts as physicochemical. To be noted: 50 ml of a 3% aqueous solution in demineralized water shaken 20 times within 10 seconds; graded weakly foaming, foaming or highly foaming.
Data set [1] can be described thus: Biodegradability (OECD 306).

On to “N-Cocoyl-DL-methionine N,N-diethyl-(2-hydroxyethyl)-ammonium salt [compound from example 6]”, for which the Foaming behavior result in “Shaking foam test” is recorded as “foaming”. Further, in data set [1], the Biodegradability is listed as 81.5%. “N-Cocoyl-DL-methionine morpholinium salt [compound from example 5]”: the Foaming behavior entry in “Shaking foam test” is listed as “foaming”.
